Values of other authors in patent US9296750B2, “Spirolactam CGRP receptor antagonists” (Merck Sharp & Dohme Corp., priority 2012, dated 2016).

Sequences of proteins named here, by UniProt entry; tags and fusion partners are left off. Residues count along the entry.
UniProt Q63118, 24-464: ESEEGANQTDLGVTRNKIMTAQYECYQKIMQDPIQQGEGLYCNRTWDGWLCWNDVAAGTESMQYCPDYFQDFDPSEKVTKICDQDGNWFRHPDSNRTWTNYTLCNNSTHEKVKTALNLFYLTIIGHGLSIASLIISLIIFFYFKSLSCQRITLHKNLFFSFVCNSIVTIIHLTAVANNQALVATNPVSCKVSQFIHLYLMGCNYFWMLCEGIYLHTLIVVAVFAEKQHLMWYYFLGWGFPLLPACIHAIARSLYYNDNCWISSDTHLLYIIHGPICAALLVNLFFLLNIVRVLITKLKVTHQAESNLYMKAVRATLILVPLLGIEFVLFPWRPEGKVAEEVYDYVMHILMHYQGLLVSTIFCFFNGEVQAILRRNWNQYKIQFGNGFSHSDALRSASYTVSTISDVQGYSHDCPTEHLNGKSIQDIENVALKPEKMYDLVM
UniProt Q9JJ74, 27-148: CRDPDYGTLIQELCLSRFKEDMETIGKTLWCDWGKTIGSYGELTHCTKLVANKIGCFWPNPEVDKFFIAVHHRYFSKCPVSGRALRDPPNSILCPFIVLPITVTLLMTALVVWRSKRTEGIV

What was measured:
[1] = biological target: T1, CGRP receptor (Rattus norvegicus, UniProt Q63118+Q9JJ74); conditions: rats, prior administration; cited from earlier work
T1 construct: host or cells: rat (in vivo)

[2] = biological target: T1, CGRP receptor; conditions: cited from earlier work

CGRP(8-37)
increase of middle meningeal artery diameter on electrical stimulation of the dura mater [1]: blocked
increase of facial blood flow on trigeminal ganglion stimulation [2]: inhibited
